# Test results reported in article PMC9706574, “A Versatile and Sustainable Multicomponent Platform for the Synthesis of Protein Degraders: Proof-of-Concept Application to BRD4-Degrading PROTACs” (Journal of Medicinal Chemistry, 2022).
# Target: BRD4 (Homo sapiens, UniProt O60885)
# Experiment: BRD4 degradation by Western blot analysis in MDA-MB-231 cells
# Details: MDA-MB-231, read-out: Dmax (maximal % of reduction toward DMSO control lane)
structure (smiles),measurement,value
"Cc1sc2c(c1C)C(c1ccc(Cl)cc1)=N[C@@H](CC(=O)N1CCN(CC(=O)NCCCCOc3cccc4c3C(=O)N(C3CCC(=O)NC3=O)C4=O)CC1)c1nnc(C)n1-2 (stereo partly drawn) [Compound 33, 2-(4-(2-((S)-4-(4-Chlorophenyl)-2,3,9-trimethyl-6H-thieno[3,2-f][1,2,4]triazolo[4,3-a][1,4]diazepin-6-yl)acetyl)piperazin-1-yl)-N-(4-((2-(2,6-dioxopiperidin-3-yl)-1,3-dioxoisoindolin-4-yl)oxy)butyl)acetamide]",Dmax,78%
